The text below walks through data of PubChem BioAssay AID743269 (The Scripps Research Institute Molecular Screening Center, 2014).

What is called inhibition is the change of the read-out against control, counted positive when it falls.

The structures appear in SMILES notation. This is a selection; strong and weak results do not stand in their true shares. The source made the active and inactive calls.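 The calls were made as follows: active = inhibition above the screen-wide mean plus 3 SD (cut at about 13% in these data); inactive = the rest.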

The subject of the assay is HIV-1 integrase (with human LEDGF/p75). Briefly: blockers of LEDGF/p75-dependent integrase strand transfer – biochemical, TR-FRET, high throughput, primary screen (AID 743269).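 Also: signal is the Cy5 over europium emission ratio at 671 and 618 nm; 0% = plate median of compound wells.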 Particulars: TR-FRET IN-LEDGF/p75 DNA integration, Eu/Cy5; at 3.7 µM; hits give high values. For orientation: Time-resolved FRET reads energy transfer from a long-lived donor to a nearby acceptor.
On to `CCC(=O)N(c1ccccc1)C1(COC)CCN(CCn2nnn(CC)c2=O)CC1`, for which the inhibition was inactive: -1.47%.

In the case of `CCC(=O)N(c1ccccc1)C1(COC)CCN(CCc2cccs2)CC1`, the inhibition is inactive: 1.87%.
